PubChem AID 2061109: pyroptosis screen in mouse bone marrow macrophages, one dose (5 µM).
Target pathway: NLRP3 inflammasome, triggered by LPS and nigericin. Dead cells counted by propidium iodide.
Higher is more protection: 100% equals untreated cells, 0% the stimulated control, negative values set to 0. Active call (*): above 70%. Part of the library is listed.

smiles | inhibition (%)
Cl.NCCCOc1cc2ccccc2cc1C(=O)Nc1ccc(Cl)cc1O | 51.4
Nc1ccccc1COc1ccc(Oc2ccccc2)cc1 | 0.0
c1ccc2c(c1)CCO2 | 68.4
COc1nc(C)ccc1-c1cc(Nc2cncc(O[C@@H]3CCCNC3)n2)n[nH]1 | 16.5
O=C(Nc1nc(-c2ccc(O)c(O)c2)c(-c2ccccc2)s1)c1ccc(O)c(O)c1 | 0.0
COC(=O)c1ccc([C@H]2c3[nH]c4ccccc4c3C[C@H](C(=O)OC)N2C(=O)CCl)cc1 | 47.9
Cl.NOCC(=O)O.NOCC(=O)O | 0.0
CCCn1c(=O)c2[nH]c(-c3ccc(OCC(=O)Nc4ccc(C#N)cc4)cc3)nc2n(CCC)c1=O | 0.0
Cl.O=C(O)c1cc(-c2ccc(C3CCNCC3)cc2)c2ccc(-c3ccc(C(F)(F)F)cc3)cc2c1 | 10.5
CCN(C(=O)c1ccco1)c1nn(C)c2nc3cc(OC)ccc3cc12 | 42.1
COc1cccc(N2CCN(C3=Nc4c(F)cccc4[C@H](CC(=O)O)N3c3cc(C(F)(F)F)ccc3OC)CC2)c1 | 68.9
C1=CCC2(CC1)COC(c1ccco1)OC2 | 0.0
NC(=O)c1csc([C@@H]2O[C@H](CO)[C@@H](O)[C@H]2O)n1 | 0.0
Clc1ccc(C(Cn2ccnc2)OCc2ccsc2Cl)c(Cl)c1 | 0.0
COc1ccc2cc3[n+](cc2c1OC)CCc1cc(O)c(O)cc1-3 | 43.7
CCn1cc(C(=O)O)c(=O)c2c(N)c(F)c(NC3CCCCC3)cc21 | 57.2
COc1ccc2[nH]c(S(=O)Cc3ncc(C)c(OC)c3C)nc2n1 | 53.6
Nc1nc(NCc2ccccc2)nc(-c2ccccc2CO)n1 | 54.1
CCOC(=O)c1sc(NC(=O)c2sccc2C)cc1C | 0.4
Cc1ncc(C)n2nc([C@@H]3C[C@H]3c3nc4c5cccnc5ccn4c3C)nc12 | 23.2
Cl.NCCc1cc(O)c(O)cc1O | 71.2*
O=C(O)Cc1ccc(Cc2cc(-c3cccc(Cl)c3)nc(C(F)(F)F)c2)cc1 | 46.2
CC(C)C1=CC2=CC[C@@H]3[C@](C)(CCC[C@@]3(C)C(=O)O)[C@H]2CC1 | 38.1
CNc1nc(Nc2ccc(C(=O)N3CCOCC3)cc2OC)ncc1Cl | 0.0
Cc1ccc(S(=O)(=O)c2ccc([N+](=O)[O-])o2)cc1 | 99.1*
CC(C)(C)c1nc(-c2ccc(NC(=O)Nc3cccc(C(F)(F)F)c3)c3ccccc23)c2c(N)nccn12 | 72.4*
CC(C)c1ccc(CC(=O)N[C@H](C)c2ccc(OCC(F)(F)F)cn2)cc1 | 0.0
CC(=O)c1c(C)c2cnc(Nc3ccc(N4CCNCC4)cn3)nc2n(C2CCCC2)c1=O.O=S(=O)(O)CCO | 0.0
COC(=O)[C@H](Cc1ccc([N+](=O)[O-])cc1)NC(=O)c1cccc2ccccc12 | 0.0
O=C(NCCCCCCNC(=O)ON=C1CCCCC1)ON=C1CCCCC1 | 68.9
Cc1cc(=O)n(C)c2cc(N3C(=O)CC[C@H](NS(=O)(=O)CC(C)C)[C@H]3c3ccc(Cl)cc3)ccc12 | 82.4*
OC[C@H]1O[C@@H](Oc2c[nH]c3ccccc23)[C@H](O)[C@@H](O)[C@@H]1O | 23.7
CCOC1=C(O)C(=O)O[C@@H]1[C@@H](O)CO | 0.0
Oc1ccc2ccccc2c1N=Nc1nccs1 | 0.0
Cn1cc(-c2ccc(CNc3cc(-c4cnc5cc(OCCCN6CCCC6)ccn45)ncn3)cc2)cn1 | 79.0*
O=C1O[C@H]([C@@H](O)CO)C(O)=C1O | 2.7
Cn1cc(-c2ccc3nnc(C(F)(F)c4ccc5ncccc5c4)n3n2)cn1 | 69.2
CC(=O)O[C@]1(C(C)=O)CC[C@H]2[C@@H]3C=C(Cl)C4=CC(=O)[C@@H]5C[C@@H]5[C@]4(C)[C@H]3CC[C@@]21C | 0.0
CCOC(=O)c1cc(C#N)c(N2CCC(C(=O)NS(=O)(=O)Cc3ccccc3)CC2)nc1C | 59.8
NC(=O)C1=CN(C2OC(COP(=O)([O-])OP(=O)([O-])OCC3OC(n4cnc5c(N)ncnc54)C(OP(=O)([O-])[O-])C3O)C(O)C2O)C=CC1.[Na+].[Na+].[Na+].[Na+] | 0.0
O=S(=O)([O-])O.c1c2c(cc3c1OCO3)-c1cc3ccc4c(c3c[n+]1CC2)OCO4 | 69.2
C=CC(=O)N1CCC(C)(Nc2cccc(C(F)(F)F)c2)C1 | 36.2
CC(=O)N1c2ccc(-c3ccc(C(=O)O)cc3)cc2[C@H](Nc2ccc(Cl)cc2)C[C@@H]1C | 27.1
c1c2c(cc3c1OCO3)-c1cc3ccc4c(c3c[n+]1CC2)OCO4 | 55.6
OC[C@H]1O[C@@H](n2cnc3c2NC=NC[C@H]3O)C[C@@H]1O | 49.8
CCC(=NNC(=O)c1ccnc(NCCCN2CCOCC2)c1)c1ccc(Cl)cc1O | 0.0
CC(=O)c1ccc2c(c1)N(CCCN(C)C)c1ccccc1S2.O=C(O)/C=C\C(=O)O | 67.9
O=C(O[C@@H]1[C@@H](O)[C@H](Oc2cc(O)c(C(=O)CCc3ccccc3)c(O)c2)O[C@@H]2COC(=O)c3cc(O)c(O)c(O)c3-c3c(cc(O)c(O)c3O)C(=O)O[C@@H]12)c1cc(O)c(O)c(O)c1 | 74.2*
Nc1ncc(-c2cnn(CCO)c2)c2scc(-c3ccc(NC(=O)Nc4cccc(F)c4)cc3)c12 | 0.0
NC(CCCP(=O)(O)O)C(=O)O | 25.9
C=CCc1c(O)ccc2nc3c(cc12)Cn1c-3cc2c(c1=O)COC(=O)[C@]2(O)CC | 0.0
CN1CCC(S(=O)(=O)c2c(Cl)ccc(NC(=O)Nc3cccc(F)c3Cl)c2O)CC1 | 0.0
Cn1c(-c2nc3cc(C(=O)N4CCCC(N)C4)ccc3n2C)cc2ccccc21.O=C(O)C(F)(F)F | 32.9
O=C(NCCO)c1ccc2c(c1)nc(Nc1cccc(Cl)c1)c1ccncc12 | 0.0
CCOC(=O)C1=C(C)NC2=C(C(=O)CC(C)(C)C2)C1c1ccc(-c2ccccc2)cc1 | 4.0
Cc1cc(Nc2cc(NC(=O)c3c(Cl)cccc3Cl)ccn2)nc(N)n1 | 43.3
OC[C@H]1OC(O)C[C@@H](O)[C@@H]1O | 60.5
CS(=O)(=O)O.Cc1ccc(NC(=O)c2ccc(CN3CCN(C)CC3)cc2)cc1Nc1nccc(-c2cccnc2)n1 | 0.0
CCN(c1cc(-c2ccc(N3CCN(C)CC3)nc2)cc(C(=O)NCc2c3c(c(C)[nH]c2=O)CCCC3)c1C)C1CCOCC1 | 54.8

5 of the compounds above, restated:

smiles,inhibition (%)
CCOC(=O)c1sc(NC(=O)c2sccc2C)cc1C,0.4
COC(=O)c1ccc([C@H]2c3[nH]c4ccccc4c3C[C@H](C(=O)OC)N2C(=O)CCl)cc1,47.9
Oc1ccc2ccccc2c1N=Nc1nccs1,0.0
O=C(O[C@@H]1[C@@H](O)[C@H](Oc2cc(O)c(C(=O)CCc3ccccc3)c(O)c2)O[C@@H]2COC(=O)c3cc(O)c(O)c(O)c3-c3c(cc(O)c(O)c3O)C(=O)O[C@@H]12)c1cc(O)c(O)c(O)c1,74.2*
O=C(NCCO)c1ccc2c(c1)nc(Nc1cccc(Cl)c1)c1ccncc12,0.0